Where a chain is given by its changes, count along the chain named. In names and notes the source's numbering stands. Each block holds one binder with its values, some of them ahead of it.
Target: T1, HER2 (UniProt P04626, in part)
T1 construct: also called ERBB2 (Her-2); p185HER2
Experiment: SPR

- Kd: 0.67 nM
B1: 4D5 Fab modified to contain Q39E in VH and Q38K in VL (Fab, name in Kabat numbering, V domains shown)
VH: [sequence of about 120 residues omitted]
VL: DIQMTQSPSSLSASVGDRVTITCRASQDVNTAVAWYQKKPGKAPKLLIYSASFLYSGVPSRFSGSRSGTDFTLTISSLQPEDFATYYCQQHYTTPPTFGQGTKVEIKR
notes: also called EKvariable

- Kd: 0.44 nM
B2: 4D5 Fab modified to contain Q39K in VH and Q38E in VL (Fab, name in Kabat numbering, V domains shown)
VH: [sequence of about 120 residues omitted]
VL: B1 VL with K38E
notes: also called KEvariable
